# Biological target: BRD2(2) (Homo sapiens, UniProt P25440)
# The chains behind the UniProt entries cited, without tags or fusion partners. Residues count along the entry.
# UniProt P25440, 344-453 limits assumed: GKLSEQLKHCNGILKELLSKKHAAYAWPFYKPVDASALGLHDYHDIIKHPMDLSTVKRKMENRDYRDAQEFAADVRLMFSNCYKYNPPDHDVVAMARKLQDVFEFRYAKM
# Details: pH 7.5
compound,measurement,value
"CCOC(=O)Nc1cc(-c2ccc(C)c(NS(C)(=O)=O)c2)nn2c(C)nnc12 [BSP, ethyl (3-methyl-6-(4-methyl-3-(methylsulfonamido)phenyl)-[1,2,4]triazolo[4,3-b]pyridazin-8-yl)carbamate]",Kd,50.3 ± 5 nM

# From publication PMC5061470, “Promiscuous targeting of bromodomains by bromosporine identifies BET proteins as master regulators of primary transcription response in leukemia” (Science Advances, 2016)
